The target in one assay is T1, SSTR1 (Homo sapiens, UniProt P30872).
T1 construct: The entire GPCR coding regions were cloned downstream of the CMV promoter and upstream of the ED; expressed in transfected cells; host or cells: HEK293 or CHOK1 cells, retroviral infection (pLNCX2)
In words: PathHunter β-arrestin2-EA / GPCR-ED enzyme fragment complementation, SSTR1-ED fusion. The assay is classed as cell-based. The following applies: saturating ligand. An excerpt:
(§1) The following are the directions for performing the determinations of the response to inducing agents and comparing the prior art ED (pK1) to an ED of the subject invention (pK2):
(§2) The cells used were HEK293 and CHOK1 cells. Following substantially the procedures described in U.S. patent application Ser. No. 10/229,247, filed Aug. 27, 2002, and U.S. patent application Ser. No. 11/132,764 (Publication no. 2005/0287522), filed May 18, 2005, whose disclosures are specifically incorporated by reference, each of the cell lines was infected with retroviral constructs. The viral plasmid was the PLNCX2 vector from Clontech. The plasmid includes sufficient retroviral sequences to enable viral production in the appropriate packaging cell lines. The plasmid also includes the neomycin antibiotic resistance gene and a CMV promoter that is used to drive expression of the target ED fusion. […] The ED is fused at the intracellular terminus, i.e., C-terminus of the proteins.
(§3) Preparation of Detection Reagents—The detection reagents must be prepared as a working solution prior to use, and once prepared are stable for at least 24 hours at room temperature with no impact on assay performance. The detection reagents consist of the substrate and co-factors for chemiluminescence signal detection, as well as the reagents necessary for selective cell permeabilization. Working solution is prepared by combining PathHunter™ Cell Assay Buffer (DiscoveRx, Inc., Fremont, Calif.), Galacton Star® and Emerald II® reagent […]. reagents (ABI, Bedford, Mass.) at a ratio of 19:1:5. Sufficient reagent is provided in each kit to perform the indicated number of assays in a 384-well, full-volume microplate assuming an addition of 12 μl of detection reagent per well or in a 96-well, full-volume microplate assuming an addition of 50 μl of detection reagent per well.
(§4) The table below outlines the procedure for using the PathHunter™ Detection Kit to monitor protein translocation in a either a parental PathHunter cell line transfected with a target protein of interest, or one of the dedicated PathHunter cell lines available from DiscoveRx for monitoring specific protein translocation events (i.e., glucocorticoid receptor).
(§5) The first column indicates the receptor. The second column indicates whether PK1 or PK2 was employed as the ED fusion partner. The basal activity indicates the signal in the absence of stimulation. The fourth column indicates the fold induction for each of the constructs, where saturating conditions of the ligand were employed. The fifth column indicates the ligand that was employed.

By UniProt entry, the sequences of proteins in these tests, tags left out.
UniProt P30872, whole entry, species assumed: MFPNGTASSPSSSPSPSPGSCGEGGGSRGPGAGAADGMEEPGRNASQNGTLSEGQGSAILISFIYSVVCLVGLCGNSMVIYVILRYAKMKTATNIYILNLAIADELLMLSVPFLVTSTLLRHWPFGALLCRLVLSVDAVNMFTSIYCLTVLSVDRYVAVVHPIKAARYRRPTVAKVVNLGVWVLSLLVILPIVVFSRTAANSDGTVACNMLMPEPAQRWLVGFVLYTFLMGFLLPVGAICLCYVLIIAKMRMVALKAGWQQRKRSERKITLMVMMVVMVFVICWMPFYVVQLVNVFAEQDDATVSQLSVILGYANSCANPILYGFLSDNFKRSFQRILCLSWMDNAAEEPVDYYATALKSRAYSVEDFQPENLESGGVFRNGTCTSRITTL
UniProt P31391, whole entry, species assumed: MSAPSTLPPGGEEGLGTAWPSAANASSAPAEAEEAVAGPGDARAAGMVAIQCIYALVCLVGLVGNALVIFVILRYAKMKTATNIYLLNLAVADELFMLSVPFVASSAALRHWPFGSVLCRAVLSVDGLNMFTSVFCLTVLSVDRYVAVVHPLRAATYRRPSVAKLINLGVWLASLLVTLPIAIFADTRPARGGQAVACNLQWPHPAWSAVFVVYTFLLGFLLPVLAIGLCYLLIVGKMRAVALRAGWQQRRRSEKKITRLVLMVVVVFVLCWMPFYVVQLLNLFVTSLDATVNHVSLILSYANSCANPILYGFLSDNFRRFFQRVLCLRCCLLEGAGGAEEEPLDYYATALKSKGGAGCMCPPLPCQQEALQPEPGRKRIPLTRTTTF

For another assay, the target named is T2, SSTR4 (Homo sapiens, UniProt P31391).
T2 construct: The entire GPCR coding regions were cloned downstream of the CMV promoter and upstream of the ED; expressed in transfected cells; host or cells: HEK293 or CHOK1 cells, retroviral infection (pLNCX2)
Description: PathHunter β-arrestin2-EA / GPCR-ED enzyme fragment complementation, SSTR4-ED fusion. The assay is classed as cell-based. The following applies: saturating ligand.
Description: as §1, §2, §3, §4, §5

For [TYR1] Somatostatin 14 [TYR-SRIF14], the values for the Fold induct. at SSTR1 (SSTR1 fused to PK1 ED) and on SSTR1 (SSTR1 fused to PK2 ED) were 1 fold and 2.2 fold, respectively.

Regarding Somatostatin-28, the Fold induct. was 1.2 fold at SSTR1 (SSTR1 fused to PK1 ED), 1.3 fold on SSTR1 (SSTR1 fused to PK2 ED), 1.3 fold at SSTR4 (SSTR4 fused to PK1 ED) and 1.6 fold at SSTR4 (SSTR4 fused to PK2 ED).

Take Somatostatin-14: the Fold induct. is 1 fold at SSTR1 (SSTR1 fused to PK1 ED), 1.5 fold at SSTR1 (SSTR1 fused to PK2 ED), 1.5 fold at SSTR4 (SSTR4 fused to PK1 ED) and 1.6 fold at SSTR4 (SSTR4 fused to PK2 ED).

The values are drawn from patent US8101373B2, “β-galactosidase donor fragments” (Discoverx Corporation, priority 2007, dated 2012).
